# Measured values: ChEMBL document CHEMBL2218924, “A broad activity screen in support of a chemogenomic map for kinase signalling research and drug discovery” (Biochem J, 2013)
# By UniProt entry, the sequences of proteins in these tests, tags left out. Where a name states a change or a piece, a line headed by the entry shows the natural chain unless it says otherwise.
# UniProt P08069, whole entry, looked up: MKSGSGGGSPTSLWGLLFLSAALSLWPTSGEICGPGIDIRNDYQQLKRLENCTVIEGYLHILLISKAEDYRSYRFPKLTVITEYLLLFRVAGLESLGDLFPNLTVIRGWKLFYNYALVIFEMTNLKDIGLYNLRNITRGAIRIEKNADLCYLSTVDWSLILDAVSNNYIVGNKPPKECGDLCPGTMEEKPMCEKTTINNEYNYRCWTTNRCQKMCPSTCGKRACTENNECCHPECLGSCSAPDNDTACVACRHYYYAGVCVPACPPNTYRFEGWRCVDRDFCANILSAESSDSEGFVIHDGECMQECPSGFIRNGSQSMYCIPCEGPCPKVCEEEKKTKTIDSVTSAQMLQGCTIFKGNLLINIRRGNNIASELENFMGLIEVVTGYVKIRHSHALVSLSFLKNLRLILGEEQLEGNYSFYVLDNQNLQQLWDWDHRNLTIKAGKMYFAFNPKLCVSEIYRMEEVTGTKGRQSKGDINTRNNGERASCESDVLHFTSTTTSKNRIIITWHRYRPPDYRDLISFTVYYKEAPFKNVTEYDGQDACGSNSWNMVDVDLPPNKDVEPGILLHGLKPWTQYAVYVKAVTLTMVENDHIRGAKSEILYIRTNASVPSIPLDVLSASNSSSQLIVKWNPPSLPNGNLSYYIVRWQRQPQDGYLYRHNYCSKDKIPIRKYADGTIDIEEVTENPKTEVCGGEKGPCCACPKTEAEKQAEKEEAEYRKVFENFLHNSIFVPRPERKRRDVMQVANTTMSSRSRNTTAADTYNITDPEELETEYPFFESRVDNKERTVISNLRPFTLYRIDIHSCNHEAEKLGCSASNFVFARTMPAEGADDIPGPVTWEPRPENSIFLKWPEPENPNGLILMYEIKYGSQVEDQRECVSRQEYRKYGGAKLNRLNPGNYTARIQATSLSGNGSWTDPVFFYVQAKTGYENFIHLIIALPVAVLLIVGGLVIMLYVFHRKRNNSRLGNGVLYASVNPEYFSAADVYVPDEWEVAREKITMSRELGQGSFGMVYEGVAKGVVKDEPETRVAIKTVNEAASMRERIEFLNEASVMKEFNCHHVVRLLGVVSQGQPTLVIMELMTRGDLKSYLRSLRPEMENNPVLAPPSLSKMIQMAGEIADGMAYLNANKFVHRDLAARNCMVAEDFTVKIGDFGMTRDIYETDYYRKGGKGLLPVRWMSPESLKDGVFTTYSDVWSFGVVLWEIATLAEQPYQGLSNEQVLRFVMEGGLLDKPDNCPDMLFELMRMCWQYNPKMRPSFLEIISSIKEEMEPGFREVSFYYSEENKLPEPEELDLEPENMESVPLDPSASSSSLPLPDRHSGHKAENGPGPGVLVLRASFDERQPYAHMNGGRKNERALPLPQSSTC
# UniProt P52333: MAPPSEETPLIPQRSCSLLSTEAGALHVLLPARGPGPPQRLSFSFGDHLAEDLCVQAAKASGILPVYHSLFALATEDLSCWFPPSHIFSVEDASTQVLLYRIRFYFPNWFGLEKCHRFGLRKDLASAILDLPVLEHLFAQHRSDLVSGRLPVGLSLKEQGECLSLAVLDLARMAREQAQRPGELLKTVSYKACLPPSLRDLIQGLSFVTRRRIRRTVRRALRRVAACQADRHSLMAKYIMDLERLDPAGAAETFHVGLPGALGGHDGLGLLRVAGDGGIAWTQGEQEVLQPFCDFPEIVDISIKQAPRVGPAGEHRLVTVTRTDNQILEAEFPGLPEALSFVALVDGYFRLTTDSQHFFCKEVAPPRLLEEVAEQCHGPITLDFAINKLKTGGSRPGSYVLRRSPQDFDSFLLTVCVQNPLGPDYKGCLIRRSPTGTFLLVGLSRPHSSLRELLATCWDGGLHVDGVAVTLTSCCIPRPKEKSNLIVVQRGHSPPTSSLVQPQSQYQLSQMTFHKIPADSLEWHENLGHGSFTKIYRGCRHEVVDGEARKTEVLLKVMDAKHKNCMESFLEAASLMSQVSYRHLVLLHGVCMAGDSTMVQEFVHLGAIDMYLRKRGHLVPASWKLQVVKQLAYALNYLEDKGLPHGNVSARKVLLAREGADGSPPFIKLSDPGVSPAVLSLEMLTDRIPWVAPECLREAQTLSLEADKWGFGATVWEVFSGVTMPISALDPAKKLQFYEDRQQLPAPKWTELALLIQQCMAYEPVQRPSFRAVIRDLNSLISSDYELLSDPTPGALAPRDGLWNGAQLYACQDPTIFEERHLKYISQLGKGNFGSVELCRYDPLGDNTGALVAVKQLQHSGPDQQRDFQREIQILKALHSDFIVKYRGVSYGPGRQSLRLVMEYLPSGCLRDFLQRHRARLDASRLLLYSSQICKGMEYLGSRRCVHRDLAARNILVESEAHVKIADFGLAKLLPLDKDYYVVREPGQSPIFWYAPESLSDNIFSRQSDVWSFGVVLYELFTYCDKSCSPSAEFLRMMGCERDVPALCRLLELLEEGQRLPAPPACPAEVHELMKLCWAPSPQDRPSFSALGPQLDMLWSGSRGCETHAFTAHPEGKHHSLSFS
# UniProt P45983: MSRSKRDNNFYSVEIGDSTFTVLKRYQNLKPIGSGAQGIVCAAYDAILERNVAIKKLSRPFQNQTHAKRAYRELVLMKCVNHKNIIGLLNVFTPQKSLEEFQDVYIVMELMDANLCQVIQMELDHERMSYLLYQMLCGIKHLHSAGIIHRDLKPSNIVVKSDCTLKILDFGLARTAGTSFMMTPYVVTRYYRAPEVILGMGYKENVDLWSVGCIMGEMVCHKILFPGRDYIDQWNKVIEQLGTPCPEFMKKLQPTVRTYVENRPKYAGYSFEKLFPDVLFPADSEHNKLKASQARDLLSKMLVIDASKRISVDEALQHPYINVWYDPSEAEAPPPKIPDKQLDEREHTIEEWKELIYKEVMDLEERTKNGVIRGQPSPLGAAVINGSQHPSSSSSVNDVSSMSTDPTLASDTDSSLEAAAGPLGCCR
# UniProt P06239: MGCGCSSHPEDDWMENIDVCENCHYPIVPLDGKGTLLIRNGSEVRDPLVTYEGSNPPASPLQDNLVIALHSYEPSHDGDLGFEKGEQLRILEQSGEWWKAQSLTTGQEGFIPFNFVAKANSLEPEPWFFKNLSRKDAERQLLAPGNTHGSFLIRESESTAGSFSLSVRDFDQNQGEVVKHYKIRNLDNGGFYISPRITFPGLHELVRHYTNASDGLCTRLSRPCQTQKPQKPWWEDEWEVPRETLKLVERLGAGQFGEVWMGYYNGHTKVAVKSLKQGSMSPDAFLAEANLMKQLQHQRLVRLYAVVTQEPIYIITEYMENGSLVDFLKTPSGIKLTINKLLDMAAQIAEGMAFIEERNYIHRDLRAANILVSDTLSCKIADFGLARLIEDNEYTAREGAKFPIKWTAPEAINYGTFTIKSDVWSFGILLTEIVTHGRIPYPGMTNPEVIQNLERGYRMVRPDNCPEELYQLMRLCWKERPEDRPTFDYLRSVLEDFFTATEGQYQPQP
# UniProt Q8N4C8: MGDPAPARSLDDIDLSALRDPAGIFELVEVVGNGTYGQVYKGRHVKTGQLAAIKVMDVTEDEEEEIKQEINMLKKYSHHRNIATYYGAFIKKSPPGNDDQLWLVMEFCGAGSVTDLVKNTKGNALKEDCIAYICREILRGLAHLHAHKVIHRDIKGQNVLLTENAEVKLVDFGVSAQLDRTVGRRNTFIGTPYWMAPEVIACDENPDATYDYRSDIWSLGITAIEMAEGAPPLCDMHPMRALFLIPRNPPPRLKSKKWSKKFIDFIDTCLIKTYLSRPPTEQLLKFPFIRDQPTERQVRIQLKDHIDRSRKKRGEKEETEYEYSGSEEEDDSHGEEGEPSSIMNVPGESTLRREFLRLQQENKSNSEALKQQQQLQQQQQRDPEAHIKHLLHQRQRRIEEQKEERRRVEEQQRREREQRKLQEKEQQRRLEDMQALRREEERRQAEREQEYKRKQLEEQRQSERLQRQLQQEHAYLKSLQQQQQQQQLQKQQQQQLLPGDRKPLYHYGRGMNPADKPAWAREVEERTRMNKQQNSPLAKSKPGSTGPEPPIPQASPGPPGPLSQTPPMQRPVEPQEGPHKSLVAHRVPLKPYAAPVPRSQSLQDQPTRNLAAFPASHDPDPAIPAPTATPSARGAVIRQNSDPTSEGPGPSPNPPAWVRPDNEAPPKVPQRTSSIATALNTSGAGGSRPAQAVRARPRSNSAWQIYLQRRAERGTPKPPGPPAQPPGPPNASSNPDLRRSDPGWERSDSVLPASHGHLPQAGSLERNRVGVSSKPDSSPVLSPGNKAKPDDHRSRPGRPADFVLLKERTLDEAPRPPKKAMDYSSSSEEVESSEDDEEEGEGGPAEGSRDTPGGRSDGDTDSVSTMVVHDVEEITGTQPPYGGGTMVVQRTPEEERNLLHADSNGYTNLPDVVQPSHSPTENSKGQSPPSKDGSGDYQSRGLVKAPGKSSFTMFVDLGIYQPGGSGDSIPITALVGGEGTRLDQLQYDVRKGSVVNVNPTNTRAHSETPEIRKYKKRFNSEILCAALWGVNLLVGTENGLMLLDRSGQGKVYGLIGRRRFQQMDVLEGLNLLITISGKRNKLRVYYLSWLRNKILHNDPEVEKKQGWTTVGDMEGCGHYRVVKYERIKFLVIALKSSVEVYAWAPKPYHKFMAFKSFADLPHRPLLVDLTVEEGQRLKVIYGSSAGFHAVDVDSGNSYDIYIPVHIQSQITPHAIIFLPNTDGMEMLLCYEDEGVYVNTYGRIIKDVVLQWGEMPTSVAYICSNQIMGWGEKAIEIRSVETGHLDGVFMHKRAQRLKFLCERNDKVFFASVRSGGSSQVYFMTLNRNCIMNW
# UniProt Q5VT25: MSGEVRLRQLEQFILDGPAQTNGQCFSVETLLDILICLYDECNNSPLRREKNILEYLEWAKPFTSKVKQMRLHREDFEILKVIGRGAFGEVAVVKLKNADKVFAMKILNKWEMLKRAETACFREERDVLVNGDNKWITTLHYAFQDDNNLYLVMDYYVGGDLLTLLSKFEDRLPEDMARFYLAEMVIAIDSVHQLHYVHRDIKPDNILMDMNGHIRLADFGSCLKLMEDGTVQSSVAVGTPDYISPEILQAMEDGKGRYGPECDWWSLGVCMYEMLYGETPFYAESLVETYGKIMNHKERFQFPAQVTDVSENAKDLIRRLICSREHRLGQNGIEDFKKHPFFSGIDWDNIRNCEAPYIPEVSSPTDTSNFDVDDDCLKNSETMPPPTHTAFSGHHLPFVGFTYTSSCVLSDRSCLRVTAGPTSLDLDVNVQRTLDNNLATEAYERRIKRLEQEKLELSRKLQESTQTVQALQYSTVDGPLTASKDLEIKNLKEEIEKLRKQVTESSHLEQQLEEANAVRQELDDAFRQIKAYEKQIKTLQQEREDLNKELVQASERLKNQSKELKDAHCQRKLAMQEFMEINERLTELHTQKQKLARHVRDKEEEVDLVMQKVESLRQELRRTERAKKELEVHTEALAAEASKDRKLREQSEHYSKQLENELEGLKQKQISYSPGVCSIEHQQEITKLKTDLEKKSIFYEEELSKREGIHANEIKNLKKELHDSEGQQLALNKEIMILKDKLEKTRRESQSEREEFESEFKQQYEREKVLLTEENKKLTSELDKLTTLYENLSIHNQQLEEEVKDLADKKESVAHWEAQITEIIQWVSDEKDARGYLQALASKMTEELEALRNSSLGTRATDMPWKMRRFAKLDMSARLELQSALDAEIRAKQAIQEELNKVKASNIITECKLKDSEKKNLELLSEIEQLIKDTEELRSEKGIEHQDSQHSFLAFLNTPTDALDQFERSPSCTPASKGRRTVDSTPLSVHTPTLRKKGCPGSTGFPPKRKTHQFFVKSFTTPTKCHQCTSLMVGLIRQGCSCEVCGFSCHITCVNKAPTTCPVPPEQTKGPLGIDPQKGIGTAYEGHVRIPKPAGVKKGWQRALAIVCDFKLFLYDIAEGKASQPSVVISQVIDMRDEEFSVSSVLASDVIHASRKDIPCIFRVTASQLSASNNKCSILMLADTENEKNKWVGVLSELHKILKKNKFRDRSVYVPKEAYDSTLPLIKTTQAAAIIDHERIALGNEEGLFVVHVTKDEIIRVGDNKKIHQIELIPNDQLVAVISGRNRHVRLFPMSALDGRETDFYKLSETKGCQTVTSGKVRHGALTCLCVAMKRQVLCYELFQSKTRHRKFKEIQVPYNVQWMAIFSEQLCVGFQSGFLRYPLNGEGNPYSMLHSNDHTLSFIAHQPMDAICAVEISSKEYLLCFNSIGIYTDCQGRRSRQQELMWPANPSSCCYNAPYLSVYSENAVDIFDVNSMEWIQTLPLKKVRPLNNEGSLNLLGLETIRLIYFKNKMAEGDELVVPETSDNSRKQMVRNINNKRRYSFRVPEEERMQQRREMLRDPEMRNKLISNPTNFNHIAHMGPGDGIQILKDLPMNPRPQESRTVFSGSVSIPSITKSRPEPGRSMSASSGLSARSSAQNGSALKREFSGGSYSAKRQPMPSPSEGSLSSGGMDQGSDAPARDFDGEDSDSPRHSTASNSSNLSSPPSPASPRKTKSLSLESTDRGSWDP
# For part of these data: Shown are results outside the selection of strong results, which stands elsewhere. Only a part is listed here, and it is no random draw.
# Experiments:
# [1] = molecular target: T1, Serine/threonine-protein kinase TAO2 (Homo sapiens) (UniProt Q9UL54); details: at 1 µM
# T1 sequence (whole entry): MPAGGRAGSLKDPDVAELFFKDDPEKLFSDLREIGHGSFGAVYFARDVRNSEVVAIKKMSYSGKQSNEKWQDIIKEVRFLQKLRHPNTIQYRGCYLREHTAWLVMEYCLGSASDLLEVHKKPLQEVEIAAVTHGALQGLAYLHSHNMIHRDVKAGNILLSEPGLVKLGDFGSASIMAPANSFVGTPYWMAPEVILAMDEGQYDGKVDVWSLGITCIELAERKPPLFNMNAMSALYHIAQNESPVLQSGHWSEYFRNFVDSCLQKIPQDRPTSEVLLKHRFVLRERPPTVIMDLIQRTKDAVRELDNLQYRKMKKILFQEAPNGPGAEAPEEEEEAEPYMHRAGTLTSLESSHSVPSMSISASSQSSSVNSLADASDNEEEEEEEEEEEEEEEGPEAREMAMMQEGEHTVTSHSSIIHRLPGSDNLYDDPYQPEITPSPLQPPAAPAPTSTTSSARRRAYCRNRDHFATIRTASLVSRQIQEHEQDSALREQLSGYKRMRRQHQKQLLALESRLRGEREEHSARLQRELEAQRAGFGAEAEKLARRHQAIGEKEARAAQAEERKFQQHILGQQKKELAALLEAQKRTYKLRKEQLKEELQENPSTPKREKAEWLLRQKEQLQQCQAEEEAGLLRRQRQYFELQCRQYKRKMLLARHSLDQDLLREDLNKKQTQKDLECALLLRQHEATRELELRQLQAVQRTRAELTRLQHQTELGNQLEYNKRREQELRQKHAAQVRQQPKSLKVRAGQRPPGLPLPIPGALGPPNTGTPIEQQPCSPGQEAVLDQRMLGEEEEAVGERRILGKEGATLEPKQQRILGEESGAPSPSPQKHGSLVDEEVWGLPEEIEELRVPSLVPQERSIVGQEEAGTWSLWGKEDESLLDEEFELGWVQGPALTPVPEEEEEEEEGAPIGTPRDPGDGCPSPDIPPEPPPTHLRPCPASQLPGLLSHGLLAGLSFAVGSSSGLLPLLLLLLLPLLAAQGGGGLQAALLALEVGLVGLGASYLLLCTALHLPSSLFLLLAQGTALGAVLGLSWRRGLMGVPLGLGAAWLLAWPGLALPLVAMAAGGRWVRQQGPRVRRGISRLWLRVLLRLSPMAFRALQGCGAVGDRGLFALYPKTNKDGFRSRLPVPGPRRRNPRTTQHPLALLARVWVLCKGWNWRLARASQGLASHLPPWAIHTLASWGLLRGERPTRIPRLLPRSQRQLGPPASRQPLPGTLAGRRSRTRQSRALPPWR
# [2] = molecular target: T2, TGF-beta receptor type-1 (Homo sapiens) (UniProt P36897); details: at 1 µM
# T2 sequence (whole entry): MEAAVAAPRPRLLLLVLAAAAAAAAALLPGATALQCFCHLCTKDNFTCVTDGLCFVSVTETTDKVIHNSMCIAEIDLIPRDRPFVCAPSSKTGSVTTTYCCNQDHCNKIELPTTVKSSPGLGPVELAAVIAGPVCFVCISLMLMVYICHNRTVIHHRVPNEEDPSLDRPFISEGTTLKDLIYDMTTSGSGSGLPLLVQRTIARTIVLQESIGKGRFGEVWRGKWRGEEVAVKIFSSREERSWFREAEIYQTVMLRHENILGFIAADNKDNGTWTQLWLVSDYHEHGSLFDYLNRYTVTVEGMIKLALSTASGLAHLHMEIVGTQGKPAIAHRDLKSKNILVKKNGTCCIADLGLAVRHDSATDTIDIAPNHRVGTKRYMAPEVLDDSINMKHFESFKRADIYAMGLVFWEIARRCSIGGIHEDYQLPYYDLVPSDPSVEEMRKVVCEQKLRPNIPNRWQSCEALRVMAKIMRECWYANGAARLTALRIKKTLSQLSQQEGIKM
# [3] = molecular target: Insulin-like growth factor 1 receptor (Homo sapiens) (UniProt P08069); details: at 1 µM
# [4] = molecular target: Inhibitor of nuclear factor kappa-B kinase subunit alpha (Homo sapiens) (UniProt O15111); details: at 10 µM
# [5] = molecular target: Inhibitor of nuclear factor kappa-B kinase subunit beta (Homo sapiens) (UniProt O14920); details: at 1 µM
# [6] = molecular target: Insulin receptor-related protein (Homo sapiens) (UniProt P14616); details: at 1 µM
# [7] = molecular target: Tyrosine-protein kinase JAK2 (Homo sapiens) (UniProt O60674); details: at 1 µM
# [8] = molecular target: Tyrosine-protein kinase JAK2 (Homo sapiens) (UniProt O60674); details: at 10 µM
# [9] = molecular target: Tyrosine-protein kinase JAK3 (Homo sapiens) (UniProt P52333); details: at 1 µM
# [10] = molecular target: Mitogen-activated protein kinase 8 (Homo sapiens) (UniProt P45983); details: at 10 µM
# [11] = molecular target: LIM domain kinase 1 (Homo sapiens) (UniProt P53667); details: at 1 µM
# [12] = molecular target: Tyrosine-protein kinase Lck (Homo sapiens) (UniProt P06239); details: at 10 µM
# [13] = molecular target: Tyrosine-protein kinase Lck (Homo sapiens) (UniProt P06239); details: at 1 µM
# [14] = molecular target: Mitogen-activated protein kinase 3 (Homo sapiens) (UniProt P27361); details: at 1 µM
# [15] = molecular target: Mitogen-activated protein kinase 3 (Homo sapiens) (UniProt P27361); details: at 10 µM
# [16] = molecular target: Mitogen-activated protein kinase 1 (Homo sapiens) (UniProt P28482); details: at 1 µM
# [17] = molecular target: Mitogen-activated protein kinase 1 (Homo sapiens) (UniProt P28482); details: at 10 µM
# [18] = molecular target: MAP kinase-activated protein kinase 3 (Homo sapiens) (UniProt Q16644); details: at 1 µM
# [19] = molecular target: Dual specificity mitogen-activated protein kinase kinase 1 (Homo sapiens) (UniProt Q02750); details: at 10 µM
# [20] = molecular target: Misshapen-like kinase 1 (Homo sapiens) (UniProt Q8N4C8); details: at 1 µM
# [21] = molecular target: Serine/threonine-protein kinase MRCK alpha (Homo sapiens) (UniProt Q5VT25); details: at 1 µM
# [22] = molecular target: Serine/threonine-protein kinase MRCK alpha (Homo sapiens) (UniProt Q5VT25); details: at 10 µM
# [23] = molecular target: Serine/threonine-protein kinase MRCK beta (Homo sapiens) (UniProt Q9Y5S2); details: at 1 µM
# [24] = molecular target: Serine/threonine-protein kinase MRCK beta (Homo sapiens) (UniProt Q9Y5S2); details: at 10 µM
# [25] = molecular target: Ribosomal protein S6 kinase alpha-5 (Homo sapiens) (UniProt O75582); details: at 1 µM
# [26] = molecular target: Ribosomal protein S6 kinase alpha-5 (Homo sapiens) (UniProt O75582); details: at 10 µM
# [27] = molecular target: Ribosomal protein S6 kinase alpha-4 (Homo sapiens) (UniProt O75676); details: at 1 µM
# [28] = molecular target: SRSF protein kinase 3 (Homo sapiens) (UniProt Q9UPE1); details: at 1 µM
# [29] = molecular target: SRSF protein kinase 3 (Homo sapiens) (UniProt Q9UPE1); details: at 10 µM
# [30] = molecular target: Hepatocyte growth factor receptor (Homo sapiens) (UniProt P08581); details: at 1 µM
smiles,measurement,setting,value
O=C1NC(=O)C(c2cn(CCCO)c3ncccc23)=C1c1cnccn1,residual activity,[1],101%
same,residual activity,[2],103%
same,residual activity,[3],108%
same,residual activity,[4],101%
same,residual activity,[5],102%
same,residual activity,[6],107%
same,residual activity,[7],101%
same,residual activity,[8],95%
same,residual activity,[9],101%
same,residual activity,[10],107%
same,residual activity,[11],97%
same,residual activity,[12],104%
same,residual activity,[13],97%
same,residual activity,[14],95%
same,residual activity,[15],101%
same,residual activity,[16],105%
same,residual activity,[17],101%
same,residual activity,[18],114%
same,residual activity,[19],109%
same,residual activity,[20],104%
same,residual activity,[21],110%
same,residual activity,[22],102%
same,residual activity,[23],102%
same,residual activity,[24],99%
same,residual activity,[25],106%
same,residual activity,[26],110%
same,residual activity,[27],109%
same,residual activity,[28],108%
same,residual activity,[29],102%
same,residual activity,[30],105%
